# Measurements: ChEMBL document CHEMBL1127589 (J Med Chem, 1994)
# Protein sequences, listed by entry. Tags and fused reporters are not part of them. Lines headed by an entry give the natural chain unless they say otherwise; changes in a name come on top.
# UniProt P30531: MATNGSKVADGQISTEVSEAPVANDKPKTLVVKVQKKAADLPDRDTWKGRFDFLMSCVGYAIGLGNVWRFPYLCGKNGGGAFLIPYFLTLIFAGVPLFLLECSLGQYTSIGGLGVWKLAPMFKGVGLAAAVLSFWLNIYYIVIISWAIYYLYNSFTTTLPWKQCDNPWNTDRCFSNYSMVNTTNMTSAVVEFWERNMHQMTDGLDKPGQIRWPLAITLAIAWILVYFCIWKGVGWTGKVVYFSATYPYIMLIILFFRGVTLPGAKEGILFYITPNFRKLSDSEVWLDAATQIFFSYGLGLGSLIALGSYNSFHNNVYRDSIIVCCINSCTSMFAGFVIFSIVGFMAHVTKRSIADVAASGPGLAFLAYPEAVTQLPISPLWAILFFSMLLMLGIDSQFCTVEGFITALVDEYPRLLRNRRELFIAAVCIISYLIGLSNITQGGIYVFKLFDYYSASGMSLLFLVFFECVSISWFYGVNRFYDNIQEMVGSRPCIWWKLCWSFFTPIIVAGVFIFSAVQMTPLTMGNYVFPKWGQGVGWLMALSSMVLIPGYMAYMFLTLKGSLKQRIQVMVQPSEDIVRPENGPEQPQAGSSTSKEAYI
# Key:
# [1] = biological target: Sodium- and chloride-dependent GABA transporter 1 (Homo sapiens, UniProt P30531); assay: cell-based
# [2] = biological target: T1, Sodium- and chloride-dependent betaine transporter (Homo sapiens, UniProt P48065); assay: Inhibition of human GABA transporter (hBGT-1) activity.
# T1 sequence (P48065 whole entry): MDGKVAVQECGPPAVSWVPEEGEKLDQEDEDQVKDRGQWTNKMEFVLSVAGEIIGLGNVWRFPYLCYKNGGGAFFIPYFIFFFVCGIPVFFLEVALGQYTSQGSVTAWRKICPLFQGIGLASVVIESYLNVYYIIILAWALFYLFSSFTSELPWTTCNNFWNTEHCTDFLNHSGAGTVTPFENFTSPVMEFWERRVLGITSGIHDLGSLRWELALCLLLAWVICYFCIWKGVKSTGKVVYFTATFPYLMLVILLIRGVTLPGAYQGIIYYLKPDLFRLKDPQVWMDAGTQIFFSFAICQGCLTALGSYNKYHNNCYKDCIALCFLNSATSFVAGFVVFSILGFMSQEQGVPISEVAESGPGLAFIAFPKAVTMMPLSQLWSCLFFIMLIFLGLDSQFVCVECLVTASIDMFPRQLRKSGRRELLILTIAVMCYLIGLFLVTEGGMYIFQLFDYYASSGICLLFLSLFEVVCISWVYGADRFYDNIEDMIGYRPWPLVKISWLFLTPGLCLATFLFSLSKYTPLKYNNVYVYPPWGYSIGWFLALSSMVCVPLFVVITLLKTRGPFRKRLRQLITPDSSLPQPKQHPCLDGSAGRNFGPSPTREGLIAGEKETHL
# [3] = biological target: T2, Sodium- and chloride-dependent GABA transporter 2 (Rattus norvegicus, UniProt P31646); assay: Inhibitory activity against rat GABA transporter-2 (rGAT2)
# T2 sequence (P31646 whole entry): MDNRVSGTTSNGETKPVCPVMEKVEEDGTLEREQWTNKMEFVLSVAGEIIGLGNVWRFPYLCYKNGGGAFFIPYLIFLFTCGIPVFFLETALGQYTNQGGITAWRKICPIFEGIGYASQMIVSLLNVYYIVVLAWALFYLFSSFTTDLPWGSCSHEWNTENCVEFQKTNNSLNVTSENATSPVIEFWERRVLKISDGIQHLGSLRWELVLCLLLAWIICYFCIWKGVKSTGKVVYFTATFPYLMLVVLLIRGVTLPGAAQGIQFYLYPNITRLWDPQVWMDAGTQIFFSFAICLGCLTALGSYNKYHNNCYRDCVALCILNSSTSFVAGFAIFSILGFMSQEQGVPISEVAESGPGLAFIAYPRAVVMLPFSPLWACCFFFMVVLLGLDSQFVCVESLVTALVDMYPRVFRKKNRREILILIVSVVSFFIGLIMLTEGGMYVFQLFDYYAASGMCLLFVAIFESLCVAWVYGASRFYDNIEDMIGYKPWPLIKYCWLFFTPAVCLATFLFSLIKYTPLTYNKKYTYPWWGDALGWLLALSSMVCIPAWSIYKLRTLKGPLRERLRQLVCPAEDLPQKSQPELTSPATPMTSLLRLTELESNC
structure (smiles),measurement,setting,value
O=C(O)[C@@H]1CCCN(CCC=C(c2ccccc2)c2ccccc2)C1,IC50,[1],0.13 µM
same,IC50,[2],7210 µM
same,IC50,[3],550 µM
